Each block holds one binder with its values, some of them ahead of it.
Assays:
Conditions in all cases: both partners purified
[1] = target: Rabbit muscle actin (monomeric) (rabbit, UniProt P68135 1-377); experiment: fluorescence polarisation; fluorescence anisotropy, direct titration of rabbit muscle actin into 20 nM VCA-AF488; 10 mM imidazole pH 7.0, 50 mM KCl, 1 mM EGTA, 1 mM MgCl2, 0.5 mM DTT, 0.1 mM ATP; room temperature
[2] = target: T1, Non-polymerizable Drosophila melanogaster 5C actin (D287A/V288A/D289A) (Drosophila melanogaster, UniProt P10987 3-376, D287A | V288A | D289A); experiment: fluorescence polarisation; fluorescence anisotropy of 10 nM VCA-AF594 with increasing non-polymerizable Drosophila 5C actin or yeast Arp2/3 complex; single site binding isotherm
[3] = target: T1, Non-polymerizable Drosophila …; experiment: fluorescence polarisation; fluorescence anisotropy of 10 nM VCA-AF594 with increasing non-polymerizable Drosophila 5C actin in the presence of 300 nM yeast Arp2/3 complex; single site binding isotherm

Kd [1]: 0.22 µM
B1: VCA-AF488 (N-WASP VCA 430–505, S430C, C431A, AlexaFluor488 labeled) (domain or fragment)
chain: CASGRDALLDQIRQGIQLKSVADGQESTPPTPAPTSGIVGALMEVMQKRSKAIHSSDEDEDEDDEEDFEDDDEWED
modifications: AlexaFluor488 maleimide on the single Cys (S430C)
notes: N-WASP VCA amino acid residues 430–505; also called N-WASP VCA-AF488; AF488-labeled N-WASP VCA; source: E. coli BL21(DE3) T1R, purified (as the VCA dimers, then SOURCE15Q and Superdex 75); not shown: GST, N-terminal, cleaved

Kd [2]: 0.07 ± 0.01 µM
Kd [3]: 0.105 ± 0.015 µM
B2: VCA-AF594 (N-WASP VCA 430–505, S430C, C431A, AlexaFluor 594 labeled) (domain or fragment)
chain: B1 chain
modifications: AlexaFluor 594 maleimide on the single Cys (S430C)
notes: N-WASP VCA amino acid residues 430–505, as for VCA-AF488; Same peptide as m12 with another dye; also called VCA-A594; source: E. coli BL21(DE3) T1R, purified (similar method to VCA-AF488); not shown: GST, N-terminal, cleaved

Reference: paper PMC3762362, “Three-color single molecule imaging shows WASP detachment from Arp2/3 complex triggers actin filament branch formation” (eLife, 2013)
